{"source": "patent US12365687B2", "about": "(Hoffmann-La Roche Inc., priority 2021, dated 2025)", "key": {"[1]": {"target": "human GABAA α5β2γ1 receptor (Homo sapiens (Human), UniProt P31644+Q8N1C3)", "assay": "Radioligand binding assay for γ1-containing GABAA subtypes, [3H]RO7239181 competition (α5β2γ1)", "method": "(§1) The affinity of compounds at GABAA γ1 subunit-containing receptors was measured by competition for [^3H]RO7239181 (67.3 Ci/mmol; Roche) binding to membranes from HEK293F cells (ThermoFisher R79007) expressing human (transiently transfected) receptors of composition α5β2γ1, α2β2γ1, α1β2γ1.\n(§2) Harvested pellets from HEK293F cells expressing the different GABAA receptor subtypes were resuspended in Mannitol Buffer pH 7.2-7.4 (Mannitol 0.29 M, Triethylamine 10 mM, Acetic acid 10 mM, EDTA 1 mM plus protease inhibitors (20 tablets Complete, Roche Diagnostics Cat. No. 05 056 489 001 per liter)), washed two times and then resuspended at 1:10 to 1:15 dilution in the same buffer. Cell disruption was performed by stirring the suspension in a Parr vessel #4637 at 435 psi for 15 minutes, and then the suspensions were centrifuged at 1000×g for 15 minutes at 4° C. (Beckman Avanti J-HC; rotor JS-4.2). […] The P2 and P3 protein concentration was determined with the BIORAD Standard assay method with bovine serum albumin as standard and measured on the NANO-Drop 1000. […]\n(§3) Membrane homogenates were resuspended and polytronised (Polytron PT1200E Kinematica AG) in Potassium Phosphate 10 mM, KCl 100 mM binding buffer at pH 7.4 to a final assay concentration determined with a previous experiment. […]"}, "[2]": {"target": "human GABAA α2β2γ1 receptor (Homo sapiens (Human), UniProt P47869+Q8N1C3)", "assay": "Radioligand binding assay for γ1-containing GABAA subtypes, [3H]RO7239181 competition (α2β2γ1)", "method": "as §1, §2, §3"}, "[3]": {"target": "α2β2γ1 GABAA receptor subtype (Homo sapiens (Human), UniProt P47869+Q8N1C3)", "assay": "Two-electrode voltage clamp electrophysiology in Xenopus oocytes expressing GABAA receptors (modulation of GABA EC20 current)", "type": "cell-based", "method": "Xenopus laevis oocytes at maturation stages V-VI were used for the expression of cloned mRNA encoding GABAA receptor subunits. Oocytes ready for RNA micro-injection were bought from Ecocyte, Castrop-Rauxel, Germany and stored in modified Barth's medium (composition in mM: NaCl 88, KCl 1, NaHCO3 2.4, HEPES 10, MgSO4 0.82, CaNO3 0.33, CaCl2 0.33, pH=7.5) at 20° C. until the experiment.\nOocytes were plated in 96-well plates for microinjection using the Roboinject automated instrument (MultiChannelSystems, Reutlingen, Germany). Approximately 50 nL of an aqueous solution containing the RNA transcripts for the subunits of the desired GABAA receptor subtype was injected into each oocyte. […]\nElectrophysiological experiments were performed using the Roboocyte instrument (MultiChannelSystems, Reutlingen, Germany) on days 3 to 5 after the micro-injection of mRNA. […] Current traces were recorded at a digitization rate of 10 Hz during and shortly before and after the GABA application. […]\nFor the analysis, the digitized current traces of the first and second GABA response were superimposed and, if necessary, rescaled to equal maximal amplitudes. The ratio between the two responses during the time interval of test compound application was calculated point by point. […]"}}, "data": [{"smiles": "C[C@@H]1N=C(c2c(F)cccc2F)c2c(ccc(C(F)(F)F)c2Cl)-n2nc(C(=O)N3CC(OC(F)F)C3)nc21", "note": "[Example 51, [3-(difluoromethoxy)azetidin-1-yl]-[(4S)-7-chloro-6-(2,6-difluorophenyl)-4-methyl-8-(trifluoromethyl)-4H-[1,2,4]triazolo[1,5-a][1,4]benzodiazepin-2-yl]methanone]", "values": [{"measurement": "Ki", "setting": "[1]", "result": 2.5, "unit": "nM"}, {"measurement": "Ki", "setting": "[2]; Ki h-GABAA α2β2γ1, [3H]RO7239181 competition binding, human GABAA α2β2γ1", "result": 29.3, "unit": "nM"}, {"measurement": "Ki", "setting": "[2]; Ki h-GABAA α2β2γ1, displacement of [3H]RO7239181, membranes of HEK293F cells expressing human receptors, means of two determinations", "result": 29.3, "unit": "nM"}, {"measurement": "Efficacy (GABA)%", "setting": "[3]; % modulation of GABA EC20 = 100*(Fold increase-1), α2β2γ1 oocytes, compound at approx. 30-fold Ki", "result": 49, "unit": "%"}, {"measurement": "Fold increase h-GABA-A α2β2γ1 oocyte @ 30-fold Ki", "setting": "[3]; Xenopus oocytes expressing α2β2γ1, compound at approx. 30-fold its Ki α2β2γ1, GABA EC20 current", "result": 1.49}]}]}
